Binding of CDR-mutated scFvs to a peptide of the spike HR2 region

Antigen: PDVDLGDISGINAS, a 14-residue peptide of the SARS-CoV-2 spike HR2 region.

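The parent was found by panning a naive human phage display library on the peptide. The variants were designed computationally from a first round of random CDR variants and then made and measured. Their group label is 14L_Ctrl (Ctrl: baseline library sampled from a position-specific scoring matrix, with some repeated check sequences). Affinity was read by AlphaSeq, a pooled yeast mating assay with surface-displayed partners. Mating (16 h, 30 °C) was followed by selection of diploids and sequencing of their barcodes. The ratio of observed to expected reads was calibrated, replicate by replicate, on BCL2-family standards whose Kd was known from biolayer interferometry. There are six technical replicates.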

Each scFv is VH, a (GGGGS)3 linker, VL, as in the parent Ab-14, and differs from it in the CDRs of the light chain only.
VH: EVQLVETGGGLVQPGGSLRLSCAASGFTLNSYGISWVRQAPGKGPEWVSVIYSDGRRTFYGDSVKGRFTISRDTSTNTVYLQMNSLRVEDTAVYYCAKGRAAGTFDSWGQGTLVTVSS
VL: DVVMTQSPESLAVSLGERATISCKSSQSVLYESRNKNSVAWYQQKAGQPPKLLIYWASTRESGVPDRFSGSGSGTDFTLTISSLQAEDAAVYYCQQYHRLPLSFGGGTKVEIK

Changes read parent residue, position, new residue, counted from the first residue of the VL shown.
Numbers give log10(Kd / nM), so 0 is 1 nM and 3 is 1 µM. Smaller is tighter.
Averages over replicates are reported, and they cover detected replicates only.
An entry "ND" has no value in the source: the pair was not observed among the diploids in that replicate. This suggests poor binding but is not conclusive.
The authors' rule: three or more of the six replicates give a measured affinity, fewer mean a poor binder.
Nonspecific signal, from three strains lacking the peptide, appeared in 4% of pairings of all light chain designs, centred on 2.64 (5% of these signals below 1.59); values are not corrected for it. Also given: how often the same scFv was detected with the empty control strains, with their mean in brackets.
The range of this assay differs from that of the first round, and the authors advise against merging the two.

| # | changes | log10 Kd, replicates | mean, log10 nM | control signals |
|---|---|---|---|---|
| 1 | S25M+Y31D+S62N | 1.26 / 1.47 / 0.81 / 1.42 / 1.29 / 1.37 | 1.27 | 3 of 18 (3.40) |
| 2 | L30Q+K36A+W56S+T59I | 0.87 / 0.75 / 0.26 / 0.30 / 0.36 / 0.54 | 0.51 | 0 of 18 |
| 3 | S28K+S62L | ND / ND / 1.78 / ND / ND / ND | 1.78 | 1 of 18 (2.62) |
| 4 | K24Q+S28L+W56M+S62R | ND / 1.91 / ND / ND / 2.30 / ND | 2.10 | 0 of 18 |
| 5 | S25C+V29G | 1.32 / 1.92 / 2.18 / 1.92 / 1.97 / 2.10 | 1.90 | 1 of 18 (1.65) |
| 6 | S33E+W56E | 0.11 / -0.18 / 0.10 / 0.14 / -0.06 / 0.10 | 0.03 | 1 of 18 (2.63) |
| 7 | S25C+L30T+Q95V | ND / ND / ND / ND / ND / ND | ND | 0 of 18 |
| 8 | L30T+W56M+E61V | 2.04 / 1.31 / 1.73 / 1.90 / 1.43 / 1.01 | 1.57 | 2 of 18 (2.20) |
| 9 | S26Q+S33D+N35Q+V39C | ND / ND / ND / ND / ND / ND | ND | 0 of 18 |
| 10 | S38P+W56S | 0.40 / 0.19 / 0.03 / 0.08 / 0.18 / 0.10 | 0.16 | 1 of 18 (2.63) |
| 11 | S26E+R34H+R99V+L102A | 1.37 / 1.51 / 2.68 / ND / 1.87 / 2.74 | 2.03 | 2 of 18 (1.62) |
| 12 | S25L+S33F+E61I | 1.87 / 2.05 / 2.08 / 3.04 / 1.62 / 2.40 | 2.18 | 1 of 18 (2.33) |
| 13 | S26D+R34S+E61P | 1.81 / 2.45 / 2.67 / 2.00 / 2.35 / 1.20 | 2.08 | 1 of 18 (2.33) |
| 14 | S103P | ND / 3.61 / ND / ND / ND / ND | 3.61 | 0 of 18 |
| 15 | S25L+S26H+L30D+Y31M+W56S+S62D+S103A | -0.19 / 0.47 / 0.11 / 0.45 / 0.36 / 0.36 | 0.26 | 1 of 18 (2.43) |
| 16 | S26P+L30R+W56G+Y97V+L100P | ND / ND / ND / ND / ND / ND | ND | 0 of 18 |
| 17 | K36Q+T59G | ND / ND / ND / ND / ND / ND | ND | 0 of 18 |
| 18 | W56K+Q96K+Y97P | ND / ND / ND / ND / ND / ND | ND | 0 of 18 |
| 19 | Y31M+E32Q | 1.69 / 1.92 / 2.44 / 1.90 / 1.80 / 2.26 | 2.00 | 0 of 18 |
| 20 | V29F+Y31M+R34D+W56Y | 2.43 / 0.90 / 0.26 / 0.66 / 0.78 / 1.65 | 1.11 | 0 of 18 |
| 21 | Y31D+R34Q+R99T | 1.83 / 3.35 / ND / 1.04 / 1.71 / ND | 1.98 | 0 of 18 |
| 22 | Q27H+T59D+Q95D | ND / ND / ND / ND / ND / ND | ND | 1 of 18 (0.55) |
| 23 | S25L+N35L+K36A+T59D | 1.15 / 1.44 / 1.15 / 0.87 / 1.31 / 1.05 | 1.16 | 0 of 18 |
| 24 | Q27R+S33E+R34N+S62Q | 0.71 / 0.65 / 0.87 / 1.29 / 1.16 / 1.16 | 0.97 | 2 of 18 (2.18) |
| 25 | E32Y+W56S+Q95T+H98T | ND / 4.48 / ND / 2.53 / ND / ND | 3.50 | 3 of 18 (1.72) |
| 26 | R34A+W56Q | 0.86 / 0.99 / 0.38 / 0.99 / 0.98 / 0.52 | 0.79 | 0 of 18 |
| 27 | Q27W+E32N+S58Q+S62P | ND / ND / ND / ND / ND / ND | ND | 0 of 18 |
| 28 | E32D+W56N | 0.24 / 0.10 / 0.11 / 0.13 / 0.11 / 0.20 | 0.15 | 2 of 18 (3.46) |
| 29 | S25Q+W56S+H98S | 0.05 / -0.45 / -0.29 / -0.52 / -0.36 / -0.29 | -0.31 | 1 of 18 (1.59) |
| 30 | W56G+L100F | 0.94 / 1.29 / 0.99 / 1.00 / 1.12 / 1.26 | 1.10 | 4 of 18 (3.18) |
| 31 | S28A+Y31D+S33D+R34Q+W56Q | 0.89 / 0.78 / 0.98 / 0.69 / 0.98 / 1.12 | 0.90 | 0 of 18 |
| 32 | S25Q+Q96N | ND / ND / ND / ND / ND / ND | ND | 0 of 18 |
| 33 | S33N | ND / ND / 1.98 / ND / 1.69 / 1.36 | 1.68 | 0 of 18 |
| 34 | S25L+S33W+Y97P | ND / ND / ND / ND / ND / ND | ND | 0 of 18 |

From the AlphaSeq antibody data of Li et al. 2023 (doi:10.1038/s41467-023-39022-2), copy in the FLAb collection.